Legend:
[1] = Solubility experiments: successive mixing with water, visual inspection; format: physicochemical; details: sonicated 10 s
Excerpt: If solid compound was still visible, this was considered as not dissolved. If no solid compound was visible, this was considered as dissolved.

[2] = Hydrophobicity indicated by reverse phase HPLC (YMC-Triart C18); format: physicochemical; details: YMC-Triart C18, 0-100% MeCN in H2O, 0.1% TFA in 25 min; later retention = more hydrophobic
Excerpt: The other way round, an earlier retention corresponded to higher hydrophilie.

SMILES	dissolved in water (visual inspection) ([1]; theoretical concentration 0.6 mM)	dissolved in water (visual inspection) ([1]; theoretical concentration 6.0 mM)	dissolved in water (visual inspection) ([1]; theoretical concentration 12.4 mM)	dissolved in water (visual inspection) ([1]; theoretical concentration 16.5 mM)	dissolved in water (visual inspection) ([1]; theoretical concentration 515 mM)	Retention Time [2] [min]
O=C(CCCC(=O)N1Cc2cc(OCCS(=O)(=O)O)ccc2C#Cc2ccc(OCCS(=O)(=O)O)cc21)NCCCC(=O)ON1C(=O)CCC1=O [Compound 11]	yes	yes	yes	yes	yes	
O=C(O)CCCNC(=O)CCCC(=O)N1Cc2cc(OCCS(=O)(=O)O)ccc2C#Cc2ccc(OCCS(=O)(=O)O)cc21 [Compound 10]						9.45

Reference: patent US20240300900A1, “HYDROPHILIC AZADIBENZOCYCLOOCTYNE DERIVATIVES AND METAL-FREE CLICK REACTIONS WITH THESE HYDROPHILIC AZADIBENZOCYCLOOCTYNE DERIVATIVES” (Roche Diagnostics Operations, Inc., priority 2021, published 2024)
